# PABP1 MLLE inh = blocks PAM2 peptide binding to the PABP1 MLLE domain | inhibition, % at 20 µM | GST-MLLE / FITC-PAM2 fluorescence polarization | AID 588489 | actives 0.36% (n = 360,000); in the data active = inhibition above about 35%, passing the limit was not always enough;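 also: plate controls were DMSO wells with GST-MLLE for no effect and wells lacking GST-MLLE protein for full effect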
# Yeast UUG start = modulators of yeast start codon fidelity, primary screen, whole organism, S. cerevisiae, single point, plate reader; S. cerevisiae UUG-firefly luciferase reporter, luminescence/redox ratio; activity score, % at 18.7 µM; 0.13% of 350,000 active; AID 602363, 2012;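 active = replicate mean at a twofold rise or more, about +100% in these data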;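 also: firefly luciferase made from a UUG start codon reports start codon fidelity; reporter light over untreated wells divided by growth signal over untreated wells; some hits fall short of that in this replicate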
# eIF4H inh = inhibitors of RNA binding by human eIF4H; Q15056; eIF4H fluorescence polarization binding assay; inhibition, % at 35 µM; actives 0.94% (n = 290,000); AID 2012;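 also: calls also rest on retests at 20 µM and on dose response follow-up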
# PABP polyA inh = blocks human PABP binding to poly(A) RNA; P11940; fluorescence polarization; calls only at 35 µM; actives 1% (n = 290,000); AID 2014;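 also: calls also rest on retests at 20 µM and on dose response follow-up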
# Pemphigus Ab inh = human desmoglein-3 autoantibody binding inhibition; P32926; DSG3-coupled beads, scFv-anti-DSG3-GFP binding, flow cytometry; stronger effect = lower value; binding (percent of control), % at 10 µM; actives 0.48% (n = 310,000);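 active = binding more than 3 SD below its plate's average and above zero; inconclusive = below that plate limit but binding exactly zero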;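 also: hits lower antibody fragment binding to DSG3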
# Active calls of the source: *; i = inactive; ? = inconclusive; / = not tested or not shown; + = active, no number. Hits are enriched below; roughly 1.5% of the tested compounds scored in any of these assays. Unless noted, no rule for the calls is given here.
# The line under a structure holds: PABP1 MLLE inh	Yeast UUG start	eIF4H inh	PABP polyA inh	Pemphigus Ab inh
COCCn1c(-c2ccc(-c3ccc([N+](=O)[O-])cc3Br)o2)nc2c1c(=O)[nH]c(=O)n2CC(C)C
 : -45	9	25	i	78*
COCCn1c(=O)[nH]c(=O)c2c1nc(-c1ccc(-c3ccc(Cl)cc3[N+](=O)[O-])o1)n2Cc1ccccc1
 : 5	/	19	i	96
C[C@@H]1CN([C@H](C)CO)C(=O)c2cc(NC(=O)C3CC3)ccc2O[C@@H]1CN(C)S(=O)(=O)c1ccc(F)cc1
 : /	2	/	/	/
COCCn1c(=N)c(C(=O)NCc2ccco2)cc2c(=O)n3ccccc3nc21
 : 29	5	113*	+	/
COc1ccc(CCNC(=O)c2cc3c(=O)n4cccc(C)c4nc3n(Cc3ccco3)c2=N)cc1OC
 : 1	-7	63*	i	96
N=c1c(C(=O)NCc2ccco2)cc2c(=O)n3ccccc3nc2n1C1CCCC1
 : 32	0	78*	+	122
N=c1c(C(=O)NCc2ccco2)cc2c(=O)n3ccccc3nc2n1Cc1ccc(Cl)cc1
 : -24	1	52	i	/
Cc1ccc2nc3c(cc(C(=O)NCc4ccco4)c(=N)n3Cc3ccco3)c(=O)n2c1
 : 8	-12	?	?	103
Cc1ccc(CNC(=O)c2cc3c(=O)n4ccccc4nc3n(Cc3ccco3)c2=N)cc1
 : -7	-2	56*	+	67
C[C@@H]1CN([C@H](C)CO)S(=O)(=O)c2ccc(-c3ccc(F)cc3)cc2O[C@@H]1CN(C)C(=O)C1CCCCC1
 : /	5	/	/	/
C[C@H]1CN([C@@H](C)CO)C(=O)c2cccc(NC(=O)Nc3ccc(F)cc3)c2O[C@H]1CN(C)C(=O)NC1CCCCC1
 : /	0	/	/	/
C[C@@H]1CN([C@@H](C)CO)C(=O)Cc2cc(NC(=O)CCCCCC(=O)Nc3ccccc3N)ccc2O[C@@H]1CN(C)S(=O)(=O)c1ccc(F)cc1
 : /	1	/	/	/
CO[C@@H]1CN(C)C(=O)c2cc(NC(=O)Nc3c(C)noc3C)ccc2OC[C@@H](C)N(CC2CC2)C[C@H]1C
 : /	-4	/	/	/
CS(=O)(=O)Nc1ccc2c(c1)[C@H]1C[C@H](CC(=O)N3CCOCC3)O[C@@H](CO)[C@H]1O2
 : /	-2	/	/	/
COc1ccc(CN(C)C[C@H]2OCCCC[C@@H](C)Oc3ccc(N(C)C)cc3C(=O)N([C@H](C)CO)C[C@@H]2C)cc1
 : /	4	/	/	/
COc1ccc(S(=O)(=O)N(C)C[C@@H]2Oc3ccc(NC(=O)Nc4ccc5c(c4)OCO5)cc3CC(=O)N([C@H](C)CO)C[C@@H]2C)cc1
 : /	5	/	/	/
N=c1c(C(=O)NCc2ccc(F)cc2)cc2c(=O)n3ccccc3nc2n1Cc1ccco1
 : -18	6	48	i	162
N=c1c(C(=O)NCc2ccccc2)cc2c(=O)n3ccccc3nc2n1Cc1ccco1
 : 4	3	84*	+	79
Cc1ccc(S(=O)(=O)c2cc3c(=O)n4ccccc4nc3n(Cc3ccco3)c2=N)cc1
 : -14	-13	78*	+	109
N=c1c(C(=O)NCc2ccco2)cc2c(=O)n3ccccc3nc2n1Cc1ccccc1
 : -19	1	77*	+	101

# Already shown: an excerpt of the list.
# The line under a structure holds: PABP1 MLLE inh	Yeast UUG start	eIF4H inh	PABP polyA inh	Pemphigus Ab inh
COc1ccc(S(=O)(=O)N(C)C[C@@H]2Oc3ccc(NC(=O)Nc4ccc5c(c4)OCO5)cc3CC(=O)N([C@H](C)CO)C[C@@H]2C)cc1
 : /	5	/	/	/
N=c1c(C(=O)NCc2ccc(F)cc2)cc2c(=O)n3ccccc3nc2n1Cc1ccco1
 : -18	6	48	i	162
N=c1c(C(=O)NCc2ccccc2)cc2c(=O)n3ccccc3nc2n1Cc1ccco1
 : 4	3	84*	+	79
Cc1ccc(S(=O)(=O)c2cc3c(=O)n4ccccc4nc3n(Cc3ccco3)c2=N)cc1
 : -14	-13	78*	+	109
N=c1c(C(=O)NCc2ccco2)cc2c(=O)n3ccccc3nc2n1Cc1ccccc1
 : -19	1	77*	+	101

# Going on with the list:
# The line under a structure holds: PABP1 MLLE inh	Yeast UUG start	eIF4H inh	PABP polyA inh	Pemphigus Ab inh
CO[C@@H]1CN(C)C(=O)c2ccc(NC(=O)C3CC3)cc2OC[C@@H](C)N(Cc2ccccc2)C[C@@H]1C
 : /	23	/	/	/
Nc1ccc2oc(-c3ccccc3Cl)cc(=O)c2c1O
 : 12	-24	90*	+	96
CN1CCN(C(=O)C[C@H]2C[C@H]3c4cc(NC(=O)Nc5ccccc5)ccc4O[C@H]3[C@@H](CO)O2)CC1
 : /	3	/	/	/
Cc1ccc(-c2ccc3c(c2)O[C@H](CN(C)C(=O)C2CC2)[C@@H](C)CN([C@@H](C)CO)S3(=O)=O)cc1
 : /	-10	/	/	/
Cc1oc(-c2ccc(Cl)cc2)cc1-c1nn2c(-c3ccco3)nnc2s1
 : /	/	64*	+	/
COc1cc(OC)c(-c2nn3c(-c4ccco4)nnc3s2)cc1OC
 : 3	-8	75*	i	103
Cc1oc(-c2ccc(F)cc2)cc1-c1nn2c(-c3ccoc3C)nnc2s1
 : -17	-1	80*	+	88
COc1ccc(-c2nnc3sc(-c4ccco4)nn23)cc1OC
 : -7	-4	19	i	99
CC(C)NC(=O)N[C@@H]1CC[C@@H](CCNS(=O)(=O)c2ccc(F)cc2)O[C@H]1CO
 : /	-4	/	/	/
COc1ccc(-c2csc(NC(C)c3nc4cc(Cl)c(Cl)cc4n3CCOCCO)n2)cc1 (configuration not stated)
 : -103	-22	/	/	104
Cc1ccc(Cn2c(C(C)Nc3nc(-c4ccc(C)cc4)cs3)nc3cc(Cl)c(Cl)cc32)cc1 (configuration not stated)
 : 2	-11	85*	i	96
CC(Nc1nc(-c2ccc(F)cc2)cs1)c1nc2cc(Cl)c(Cl)cc2n1CCCO (configuration not stated)
 : -5	-11	/	/	87*
CC(C)C#Cc1cnc2c(c1)C(=O)N([C@H](C)CO)C[C@@H](C)[C@H](CN(C)C(=O)C1CCC1)O2
 : /	7	/	/	/
CCn1c2ccccc2c2nnc(SCc3ccccc3)nc21
 : 1	-7	-4	i	95
CCn1c2ccccc2c2nnc(SCc3ccc(C(=O)OC)o3)nc21
 : 41*	1	-3	i	118
CN(C)c1cccc(C(=O)OCc2cc(=O)oc3cc(O)ccc23)c1
 : 1	2	88*	+	/
O=C(C[C@@H]1CC[C@@H](NC(=O)Nc2cc(F)ccc2F)[C@H](CO)O1)NCc1ccccn1
 : /	-7	/	/	/
O=C(O)c1ccccc1NCc1ccncc1
 : 13	-9	-7	i	104
O=C(O)c1ccc(CNc2ccccc2C(=O)O)cc1
 : 0	-11	77*	+	106
O=C(O)CSc1nc2sc3c(c2c(=O)n1-c1ccccc1)CCC3
 : -4	-15	8	i	95

# Further entries
# The line under a structure holds: PABP1 MLLE inh	Yeast UUG start	eIF4H inh	PABP polyA inh	Pemphigus Ab inh
CCn1c(SCC(=O)OC)nc2sc3c(c2c1=O)CCC3
 : -6	-16	72*	i	81
CCn1c(SCC(=O)O)nc2sc3c(c2c1=O)CCC3
 : 11	0	48	i	106
COc1ccc(O)c(C(=O)c2cc(SCC(=O)O)c3nc4sc5c(c4c(=O)n3c2)CCCC5)c1
 : -14	/	81*	+	100
O=C(CSc1nc2sc3c(c2c(=O)n1-c1ccccc1)CCCC3)N/N=C/c1ccccc1C(=O)O
 : 14	-30	10	i	95
COc1ccc(-n2c(SCC(=O)O)nc3sc4c(c3c2=O)CCCC4)cc1
 : 15	-1	-9	i	79*
CC(NC(=O)CSc1nc2sc3c(c2c(=O)n1-c1ccccc1)CCCC3)c1ccccc1 (configuration not stated)
 : 12	-42	-13	i	79*
CCCNC(=O)Nc1ccc2c(c1)C(=O)N(C)C[C@H](OC)[C@H](C)CN(Cc1cncnc1)[C@@H](C)CO2
 : /	-4	/	/	/
C[C@@H]1CN([C@H](C)CO)C(=O)c2cccc(NC(=O)C3CCOCC3)c2O[C@H]1CN(C)Cc1ccccc1
 : /	-9	/	/	/
